The source of these data is US12668573B2, “Linker, antibody-drug conjugate including same and use thereof” (Zhejiang Yangshengtang Institute of Natural Medication Co., …, priority 2018, dated 2026).

The conditions of test [1]: HER2^+ breast cancer after Herceptin resistance; cited from earlier work.
The test system of test [2] is MDA-MB-468. As to the kind of experiment: In vitro cytotoxicity test (CellTiter Glo, 96 h). It counts as cell-based. The conditions noted are these: MDA-MB-468, HER2-negative breast cancer; ADC DAR about 4. The text has this: (§1) The positive control drugs were anti-HER2 humanized monoclonal antibody mil40 (MAB) (purchased from Zhejiang Hisun Pharmaceutical Co., Ltd.), and cytotoxin MMAE (purchased from Concortis Biosystems). The selected cell lines included antigen HER2-positive breast cancer cell lines BT-474 and HCC1954, antigen HER2-positive ovarian cancer cell line SK-OV-3, antigen HER2-positive gastric cancer cell line NCI-N87, and antigen HER2-weakly positive breast cancer cell line MCF-7, and antigen HER2-negative breast cancer cell line MDA-MB-468 (purchased from ATCC).
(§2) a) Vial was gently shaken in a 37° C. water bath to be thawed; b) after all the contents had been thawed, the vial was taken out from the water bath, and disinfected by immersion in or spraying with 70% ethanol; c) the contents of the vial was transferred into a centrifuge tube containing 9 mL of complete medium (DMEM medium was used for cell lines BT-474 and MCF-7; RPMI1640 medium was used for cell lines NCI-N87, HCC1954 and MDA-MB-468; and Mccoy's 5A medium was used for cell line SK-OV-3; the media described below were the same as here), and centrifuged at about 200 xg for 5 minutes; d) the cell pellet was re-suspended in a medium and distributed into a 75 cm^2 culture flask; e) the resulting culture was incubated in a 37° C., 5% CO2 incubator.
(§3) a) The cells were passaged three times a week at a ratio of 1:4 in a medium containing 10% FBS (heat inactivated) and 1% penicillin/streptomycin solution; b) for the passaged cells, the adherent cells were firstly washed with 0.05% trypsin/EDTA solution (3 mL), then trypsin/EDTA (3 mL) was added and vortexed to coat the cells evenly. The resulting culture was incubated at 37° C. until the cells were detached (observed with microscope to verify that the cells were detached). An equal volume of cell culture medium was added to inactivate trypsin, the detached cells were collected, and centrifuged at 200×g for 5 minutes and then re-suspended in fresh culture medium. […]
(§4) a) The cells were collected and counted to determine the number of cells; b) 36 μL of the cell suspension with an adjusted density was added to the designated 384-well cell culture plate; and the final cell density was about 1,000 cells/well; c) the plate was covered with a lid, and placed in an incubator to perform incubation at 37° C., 5% CO2 and 0.1% O2 for 96 hours.
(§5) a) After 96 hours, the plate was taken from the incubator and equilibrated at room temperature for 10 minutes; b) CellTiter Glo reagent was incubated at 37° C. before the experiment; c) 40 μL of CellTiter-Glo reagent was added to each well to be tested (the ratio of CellTiter-Glo reagent to medium was 1:1); d) the plate was then placed at room temperature for 30 minutes, and then reading was carried out on an EnSpire reader for cell counting.
(§6) Remaining activity was calculated using the following formula: Remaining activity (%)=100%×(S−M)/(V−M) • S: Readout of test sample • V: Readout of vehicle sample • M: Readout of well with compounds treatment • Xlfit (v5.3.1.3), equation 201 was used to fit curve, and calculate IC50 value. […]
A general note: In ATP-based viability assays light output follows the ATP content of the culture.

Test [3] deals with MCF-7. As to the kind of experiment: In vitro cytotoxicity test (CellTiter Glo, 96 h). The format is cell-based. The conditions noted are these: MCF-7, HER2-weakly positive breast cancer; ADC DAR about 4.
Source text: as §1, §2, §3, §4, §5, §6

Test [4] concerns NCI-N87. The test is described as follows: In vitro cytotoxicity test (CellTiter Glo, 96 h). It counts as cell-based. The note with it: NCI-N87, HER2-positive gastric cancer; ADC DAR about 4.
Source text: as §1, §2, §3, §4, §5, §6

Test [5] relates to SK-OV-3. The test is described as follows: In vitro cytotoxicity test (CellTiter Glo, 96 h). It counts as cell-based. The conditions noted are these: Sk-OV-3, HER2-positive ovarian cancer; ADC DAR about 4.
Source text: as §1, §2, §3, §4, §5, §6

The test system of test [6] is HCC1954. As to the kind of experiment: In vitro cytotoxicity test (CellTiter Glo, 96 h). The format is cell-based. The note with it: HCC1954, HER2-positive breast cancer; ADC DAR about 4.
Source text: as §1, §2, §3, §4, §5, §6

For test [7], the system named is BT-474. The test is described as follows: In vitro cytotoxicity test (CellTiter Glo, 96 h). It counts as cell-based, human. The conditions noted are these: BT-474, HER2-positive breast cancer; ADC DAR about 4.

As to “Kadcyla: ADC drug composed of monoclonal antibody Herceptin and cytotoxin DM1”, in test [1], the “prolongation of overall survival (OS) in comparison with standard therapy of capecitabine/lapatinib” value is approximately 6 months.

One may read the IC50 as the concentration that gives 50% inhibition. Higher therefore signals lower potency. As for “MAB: anti-HER2 humanized monoclonal antibody mil40, a biosimilar of Herceptin, purchased from Zhejiang Hisun”, the IC50 is 553 nM in test [2]; more than 3440 nM in test [3]; 0.36 nM in test [4]; 2760 nM in test [5]; 0.274 nM in test [6]; 1.54 nM in test [7].
